Test results reported in BindingDB's records for doi:10.1124/jpet.104.073668 (Temple University, 2005).

Protein sequences, listed by entry. Tags and fused reporters are not part of them.
UniProt P33535, whole entry: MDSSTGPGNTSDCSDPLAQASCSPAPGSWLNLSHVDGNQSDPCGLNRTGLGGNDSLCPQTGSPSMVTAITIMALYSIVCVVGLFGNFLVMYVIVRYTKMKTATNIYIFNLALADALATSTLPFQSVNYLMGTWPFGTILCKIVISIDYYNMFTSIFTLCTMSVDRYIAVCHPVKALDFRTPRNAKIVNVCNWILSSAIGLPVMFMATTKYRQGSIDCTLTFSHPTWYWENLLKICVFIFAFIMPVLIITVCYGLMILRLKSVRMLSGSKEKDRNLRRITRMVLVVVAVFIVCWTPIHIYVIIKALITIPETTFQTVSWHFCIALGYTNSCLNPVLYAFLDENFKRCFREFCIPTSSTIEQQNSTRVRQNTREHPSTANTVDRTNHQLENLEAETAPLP

Molecular target: Mu-type opioid receptor (Rattus norvegicus, UniProt P33535)

Question: With `C[C@@H](NC(=O)[C@@H](N)Cc1ccc(O)cc1)C(=O)NCC(=O)N(C)[C@@H](Cc1ccccc1)C(=O)NCCO` [CAS_100929-53-1] as the compound, how does the Ki read?
Answer: 8.9 nM
